Measured values published in patent publication US7732133B2, “Screening methods for biologically active ligands” (Chugai Seiyaku Kabushiki Kaisha, priority 2000, dated 2010).

Key:
Type in all cases: cell-based
[1] = biological target: T1, chimeric PDGF receptor (human PDGF receptor β chain / mouse G-CSF receptor) in Ba/F3 cell line PDG#35 (Homo sapiens, UniProt P09619); assay: Growth response of chimeric PDGF receptor-expressing Ba/F3 cell line PDG (PDG#35) (WST-8); conditions: Ba/F3 cell line PDG (PDG#35, FIG. 8), 70 hours culture, WST-8 absorbance
T1 construct: from the 1st to the 531st amino acid residues; expressed in transfected cells; host or cells: mouse Ba/F3 cells, clones PDG#35 (section 1-7) and PDG#10 (section 1-15)
Description: (§1) A chimeric receptor cDNA was constructed by linking cDNA fragments encoding the β chain (from the 1st to the 531st amino acid residues; Gronwald, RGK. et al. (1988) Proc. Natl. Acad. Sci. USA. 85, 3435-3439) of human PDGF receptor, and the transmembrane and intracellular domains (from the 602nd to the 813th amino acid residues; Fukunaga, R. et al. (1990) Cell 61, 341-350) of mouse G-CSF receptor. The cDNA was inserted downstream of the HEF1α promoter of the mammalian expression vector pCV to construct chimeric receptor-expression vector pCV-cPDGFR. pCV-cPDGFR was linearized with Pvu I (Takara Shuzo), extracted with phenol and chloroform, and purified by ethanol precipitation.
The linearized expression gene vector was introduced into mouse Ba/F3 cells using an electroporation apparatus (Gene Pulser: Bio Rad). […]
(§2) The cells were washed twice with Media A, and were suspended in Media A to give a cell density of 5×10^4 cells/mL. […] After the culture, 10 μL/well WST-8 reagent (Cell Count Reagent SF; Nacalai Tesque) was added, and pre-reaction absorbance at a measurement wavelength of 450 nm and a control wavelength of 655 nm was measured using microplate reader (Model 3550, Bio Rad). The plate was incubated for two hours in a CO2 incubator (CO2 concentration, 5%), and post-reaction absorbance was measured as above.

[2] = biological target: T2, chimeric PDGF receptor (human PDGF receptor β chain / mouse G-CSF receptor) in Ba/F3 cell line PDG#10 (Homo sapiens, UniProt P09619); assay: Growth response of chimeric PDGF receptor-expressing Ba/F3 cell line PDG (PDG#10) (WST-8); conditions: Ba/F3 cell line PDG (PDG#10, FIG. 17), 72 hours culture, WST-8 absorbance
T2 construct: from the 1st to the 531st amino acid residues; expressed in transfected cells; host or cells: mouse Ba/F3 cells, clones PDG#35 (section 1-7) and PDG#10 (section 1-15)
Description: as §1, with “R G K.” for “RGK.”, “receptor” for “receptor,”, “cloned” for “inserted”, “EF1α” for “HEF1α”
The linearized expression vector was introduced into mouse Ba/F3 cells using an electroporation apparatus (Gene Pulser: Bio Rad). […]
as §2, with “four” for “two”

[3] = biological target: T3, chimeric IGF-I receptor (human IGF-I receptor extracellular domain / mouse G-CSF receptor) in Ba/F3 cell line IGG (Homo sapiens, UniProt P08069); assay: Growth response of chimeric IGF-I receptor-expressing Ba/F3 cell line IGG (WST-8); conditions: 72 hours culture in insulin-free Media B, WST-8 absorbance
T3 construct: from the 1st to the 931st amino acid residues; expressed in transfected cells; host or cells: mouse Ba/F3 cells, clone IGG#06 = IGG
Description: A chimeric receptor cDNA was constructed by linking cDNA fragments encoding the extracellular domain (from the 1st to the 931st amino acid residues; Ullrich, A. et al. (1986) EMBO J., 5, 2503-2512) of human IGF-I receptor, and the transmembrane and intracellular domains (from the 602nd to the 813th amino acid residues; Fukunaga, R. et al. (1990) Cell 61, 341-350) of mouse G-CSF receptor. This construct was inserted downstream of the HEF1α promoter of the mammalian expression vector pCV to construct chimeric receptor-expression vector pCV-cIGF1R. pCV-cIGF1R was linearized with Pvu I (Takara Shuzo), extracted with phenol and chloroform, and purified by ethanol precipitation.
The linearized expression vector was introduced into mouse Ba/F3 cells using an electroporation apparatus (Gene Pulser: Bio Rad). The Ba/F3 cells were washed twice with Dulbecco's PBS (hereinafter referred to as PBS), and then were suspended in PBS to give a cell density of about 1×10^7 cells/mL. 20 μg linearized expression vector DNA was added to 0.8 mL of this suspension, transferred into a cuvette (Bio Rad) for electroporation, and pulsed with a capacitance of 960 μF at 0.33 kV.
After leaving standing for about 10 min at room temperature, the cells treated by electroporation were suspended in 40 mL Media A, and were seeded on four 96-well microtiter plates (flat bottom, Falcon) at 100 μL/well. […]

concentration at which an evident growth reaction was observed [1] [ng/mL]	concentration at which an evident growth reaction was observed [2] [ng/mL]	concentration at which an evident growth reaction was observed [3] [ng/mL]	Substance
≥ 30	≥ 0.5	–	human PDGF-BB: human platelet-derived growth factor BB (Genzyme)
–	–	≥ 10	human IGF-I: human insulin-like growth factor I (Genzyme)
